Reference: ChEMBL document CHEMBL1134508, “3-(4-aroyl-1H-pyrrol-2-yl)-N-hydroxy-2-propenamides, a new class of synthetic histone deacetylase inhibitors” (J Med Chem, 2001)

Experiments:
Histone deacetylase HD2 [1] = molecular target: T1, Histone deacetylase HD2 (Zea mays, UniProt Q94F81); test: Experimental anti-HDAC (anti-histone deacetylase) activity of the compound
T1 sequence (Q94F81 whole entry): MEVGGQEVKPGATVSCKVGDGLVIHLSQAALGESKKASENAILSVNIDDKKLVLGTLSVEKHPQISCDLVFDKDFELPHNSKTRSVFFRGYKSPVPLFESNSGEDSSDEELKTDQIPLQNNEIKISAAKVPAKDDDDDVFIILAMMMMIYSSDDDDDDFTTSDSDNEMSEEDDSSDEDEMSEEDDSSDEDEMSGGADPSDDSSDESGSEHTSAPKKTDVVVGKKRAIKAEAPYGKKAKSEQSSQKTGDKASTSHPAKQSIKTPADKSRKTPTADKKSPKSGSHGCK

Histone deacetylase HD2 [2] = molecular target: T1, Histone deacetylase HD2; test: Inhibitory concentration against histone deacetylase activity

Ki (Histone deacetylase HD2 [1]): 4.37 nM
IC50 (Histone deacetylase HD2 [2]): 7.2 nM
Compound: CC(/C=C/C(=O)NO)=C\[C@@H](C)C(=O)c1ccc(N(C)C)cc1 [TRICHOSTATIN]
